Earlier results in publication PMC4362760, “JAK2^V617F Drives Mcl-1 Expression and Sensitizes Hematologic Cell Lines to Dual Inhibition of JAK2 and Bcl-xL” (PLoS ONE, 2015).

Target: Bcl-2
Settings: cited from earlier work

CC1(C)CCC(c2ccc(Cl)cc2)=C(CN2CCN(c3ccc(C(=O)NS(=O)(=O)c4ccc(N[C@H](CCN5CCOCC5)CSc5ccccc5)c(S(=O)(=O)C(F)(F)F)c4)cc3)CC2)C1 [ABT-263]
Ki: < 1 nM
